From patent US20040209930A1, “Synergistic methods and compositions for treating cancer” (priority 2002, published 2004) come the findings set out here.

The experiment has as its system GEO human colon carcinoma xenografts. Type of experiment: in vivo.

As for cetuximab, the “tumor growth delay (TGD)” value (single agent cetuximab at its optimal dose of 0.25 mg/mouse, ip, q3dx6, nude mice, advanced-stage GEO xenografts) was determined as 14.5 days. The “antitumor activity as monotherapy” value (single agents, inhibiting tumor growth/progression and causing tumor growth delay) is “significant antitumor activities”.
